Assay results taken from IntAct's records for PubMed 15901672.

B1: Bcl-2 homologous antagonist/killer (Homo sapiens), Q16611 (parent)
chain: MASGQGPGPPRQECGEPALPSASEEQVAQDTEEVFRSYVFYRHQQEQEAEGVAAPADPEMVTLPLQPSSTMGQVGRQLAIIGDDINRRYDSEFQTMLQHLQPTAENAYEYFTKIATSLFESGINWGRVVALLGFGYRLALHVYQHGLTGFLGQVTRFVVDFMLHHCIARWIAQRGGWVAALNLGNGPILNVLVVLGVVLLGQFVVRRFFKS

Variants of: B1
Conditions: with q07817-1 BCL2L1, Q07817-1

effect of a mutation on the interaction	Variant
decreasing interaction	L78A
